2 molecules from patent US7026334B1, “Thiazolidine compounds and pharmaceutical compositions exhibiting thrombopoietin receptor agonism” (Shionogi & Co., Ltd., priority 1999, dated 2006) can be followed below.

Amino acid sequences for entries named in this document (tags omitted). Residues count along the entry.
UniProt P40238, 26-635 limits assumed: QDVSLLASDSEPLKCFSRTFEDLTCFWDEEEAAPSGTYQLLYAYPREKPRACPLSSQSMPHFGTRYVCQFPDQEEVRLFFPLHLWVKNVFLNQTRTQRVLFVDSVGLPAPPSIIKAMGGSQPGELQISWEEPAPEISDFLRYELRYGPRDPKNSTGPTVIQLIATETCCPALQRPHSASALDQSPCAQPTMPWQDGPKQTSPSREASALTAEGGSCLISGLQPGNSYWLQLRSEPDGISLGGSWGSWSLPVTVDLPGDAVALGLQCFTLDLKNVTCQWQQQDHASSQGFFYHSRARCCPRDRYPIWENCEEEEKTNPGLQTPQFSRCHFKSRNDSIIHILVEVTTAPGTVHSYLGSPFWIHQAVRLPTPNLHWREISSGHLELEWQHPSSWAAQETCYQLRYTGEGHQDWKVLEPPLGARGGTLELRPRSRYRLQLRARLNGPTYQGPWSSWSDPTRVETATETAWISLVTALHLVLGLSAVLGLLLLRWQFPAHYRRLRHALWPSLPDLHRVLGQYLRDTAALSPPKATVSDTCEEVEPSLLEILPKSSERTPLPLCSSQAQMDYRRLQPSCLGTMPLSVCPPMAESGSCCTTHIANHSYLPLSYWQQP

The target of this assay is human TPO receptor (hTPOR) (Homo sapiens, UniProt P40238). As to the kind of experiment: Proliferation of TPO dependent BaF/hTPOR cells (thrombopoietic activity, WST-1). The assay is classed as cell-based. The conditions noted are these: read-out: ED50, 20 hours + 4 hours WST-1, absorbance at 450 nm, ED50 = half concentration of the concentration showing the maximum thrombopoietic activity. From the text: The TPO dependent BaF/hTPOR cell line which was established by introducing human TPO receptor (hTPOR) into BaF-BO3 cells according to Collins et al (J. Cell. Physiol., 137:293-298 (1988)) was used to test the thrombopoietic activity of the present compound (B-17). The DNA sequences and encoded peptide sequences for human hTPOR have been described by Vigon et al (Proc. Natl. Acad. Sci. USA, 89:5640-5644 (1992)). TPO dose not have any ability to support proliferation of interlukin-3 dependent parental cell line BaF-BO3. BAF/hTPOR cells were maintained in RPMI medium and WEHI-3B conditioned medium as a source of murine interleukin-3 (IL-3). These cells were washed and resuspended in RPMI medium without a source of murine IL-3 and seeded into each well of 96-well microtiter plates at a density of […] cells per well in the absence or presence of various concentration of hTPO or the present compound. After incubation at 37° C. for 20 hours in the 5% CO2 incubator, 10% WST-1 reagent (Takara Biomedicals, Japan) was added to each wells and the cells were further incubated for 4 hours. Table 24 exemplifies the ED50 for tested compounds of the present invention, wherein the ED50 is the half concentration of the concentration showing the maximum thrombopoietic activity
(In general: Tetrazolium dyes change colour on reduction, which living cells bring about.)

SMILES strings stand for the structures.

Consider `CCCCCc1ccc(-c2csc(NC(=O)c3ccc(/C=C4\SC(=S)NC4=O)cc3)n2)cc1`, for which the EC50 was 21 nM.
The value for `O=C1NC(=O)/C(=C/c2ccc(C(=O)Nc3nc(-c4ccc(Br)s4)cs3)cc2)S1` was 30 nM.
